In PMC9370560, “5-Demethoxy-10′-ethoxyexotimarin F, a New Coumarin with MAO-B Inhibitory Potential from Murraya exotica L” (Molecules, 2022) one finds IC50 data, which are given here for 1 molecule.

Chains of the proteins cited; added tags and fusions are not shown.
UniProt P21397, whole entry: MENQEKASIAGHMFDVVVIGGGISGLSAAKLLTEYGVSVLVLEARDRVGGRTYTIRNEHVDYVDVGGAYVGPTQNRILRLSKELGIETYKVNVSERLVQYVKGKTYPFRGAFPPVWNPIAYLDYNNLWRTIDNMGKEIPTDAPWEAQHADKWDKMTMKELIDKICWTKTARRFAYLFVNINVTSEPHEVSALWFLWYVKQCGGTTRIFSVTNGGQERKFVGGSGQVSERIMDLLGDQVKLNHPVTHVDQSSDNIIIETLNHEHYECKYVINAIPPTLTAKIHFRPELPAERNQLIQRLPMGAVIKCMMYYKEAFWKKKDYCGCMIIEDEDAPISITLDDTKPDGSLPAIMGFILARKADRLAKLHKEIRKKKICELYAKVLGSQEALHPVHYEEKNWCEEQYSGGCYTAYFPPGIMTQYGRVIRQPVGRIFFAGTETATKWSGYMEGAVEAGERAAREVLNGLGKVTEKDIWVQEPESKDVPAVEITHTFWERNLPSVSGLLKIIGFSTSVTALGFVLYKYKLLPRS

Molecules are shown by their SMILES.

As usually defined, the IC50 is the concentration at which inhibition is half-maximal. Read a high IC50 as lower potency.

For this test, the target named is MAO-A (Homo sapiens, UniProt P21397). The class given is biochemical.

`CC(C)NNC(=O)c1ccncc1` [iproniazide, reference compound]: half-maximal inhibition (IC50) was put at 6.55 ± 0.75 µM.
